The numbers were not newly measured in patent US8211015B2 (priority 2006, dated 2012), which cites them from elsewhere.

Some compounds may have been tested in ways that are not shown here.

What is called clearance is the volume of plasma or blood freed of the substance per unit of time.

For this series the following is noted: non-obstetric population.

For the compound `CCC(=O)N(c1ccccc1)C1(C(=O)OC)CCN(CCC(=O)OC)CC1`, the clearance is 40 mL/min/kg and the “duration of action independent of infusion duration (context-sensitive half-life)” value is given as 3 min.
